Drawing on patent US20260242729A1, this text covers percentage of cells within gate for one substance.

The chains behind the UniProt entries cited, without tags or fusion partners. Residues count along the entry.
UniProt P07766, 23-207: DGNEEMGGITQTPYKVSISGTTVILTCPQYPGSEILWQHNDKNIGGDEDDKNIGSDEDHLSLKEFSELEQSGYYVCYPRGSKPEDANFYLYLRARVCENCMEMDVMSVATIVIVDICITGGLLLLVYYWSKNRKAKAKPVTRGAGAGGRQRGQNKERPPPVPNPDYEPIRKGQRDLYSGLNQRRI

The target in the assay is CD3 on the surface of Jurkat cells, PBMCs and T cells (human) (UniProt P07766). Nature of the assay: flow cytometry; after Fab-multimer staining, D-biotin and washing, remaining OKT3 Fab monomers on the cells were detected with fresh PE-labeled Strep-Tactin; live (PI-negative) cells; second dot plot from the right.

The substance “αCD3 Fab fragment derived from the monoclonal antibody OKT3, heavy chain C-terminally fused to Twin-Strep-tag (monomeric Fab)” gave a percentage of cells within gate of 0.018%.
